One test concerns the target hCB1 (Homo sapiens, UniProt P21554). Briefly: bioSens-All ebBRET effector biosensor signaling profiling, HEK293. Format: cell-based.
A further test has as its target CB1 (Rattus norvegicus, UniProt P20272). Briefly: Radioligand competition binding with [3H]-CP-55,940, rat brain membranes.

The chains behind the UniProt entries cited, without tags or fusion partners.
UniProt P21554, whole entry: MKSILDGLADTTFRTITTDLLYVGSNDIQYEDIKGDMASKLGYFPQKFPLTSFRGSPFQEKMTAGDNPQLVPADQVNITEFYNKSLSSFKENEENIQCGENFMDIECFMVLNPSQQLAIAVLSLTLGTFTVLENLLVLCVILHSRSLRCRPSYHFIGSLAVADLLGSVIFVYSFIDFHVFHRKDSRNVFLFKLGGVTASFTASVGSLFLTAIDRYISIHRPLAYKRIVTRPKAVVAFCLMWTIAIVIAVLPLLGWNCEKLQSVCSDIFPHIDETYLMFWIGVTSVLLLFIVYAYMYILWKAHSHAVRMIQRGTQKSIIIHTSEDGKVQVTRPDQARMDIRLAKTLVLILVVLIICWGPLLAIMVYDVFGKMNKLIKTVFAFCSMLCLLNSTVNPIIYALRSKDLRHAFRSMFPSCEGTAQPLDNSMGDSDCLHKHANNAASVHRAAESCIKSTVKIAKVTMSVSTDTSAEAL
UniProt P20272, whole entry: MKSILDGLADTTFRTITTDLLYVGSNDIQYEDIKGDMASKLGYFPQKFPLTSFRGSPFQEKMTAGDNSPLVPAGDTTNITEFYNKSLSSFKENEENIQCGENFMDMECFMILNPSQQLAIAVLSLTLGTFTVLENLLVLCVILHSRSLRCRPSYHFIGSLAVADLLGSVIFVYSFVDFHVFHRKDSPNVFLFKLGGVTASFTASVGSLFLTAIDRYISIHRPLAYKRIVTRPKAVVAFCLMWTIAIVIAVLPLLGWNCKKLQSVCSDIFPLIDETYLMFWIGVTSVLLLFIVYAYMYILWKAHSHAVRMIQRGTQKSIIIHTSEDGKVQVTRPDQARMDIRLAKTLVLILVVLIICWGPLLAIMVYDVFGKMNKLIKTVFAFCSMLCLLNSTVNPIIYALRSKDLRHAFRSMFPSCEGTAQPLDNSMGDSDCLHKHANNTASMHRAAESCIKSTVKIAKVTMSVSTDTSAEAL

From article doi:10.1101/2023.02.27.530254, “Large library docking for cannabinoid-1 receptor agonists with reduced side effects” (bioRxiv, 2024) come the findings set out here.

Where two headings read alike, the source gives them in different places.

For the compound `Cc1cc(C(=O)NC(C)(C(=O)O)c2cccs2)nn1-c1cccc(C(F)(F)F)c1` (centres unmarked), the “hCB1 Gi1 pEC50 [95% CI]” value on hCB1 (Gi1 sensor) was 5.2 [5.1 – 5.2]. Further, the hCB1 Gi1 Emax [95% CI] on hCB1 (Gi1 sensor, normalized to CP-55,940) is 108%. Besides, on hCB1 (GoB sensor), the “hCB1 GoB pEC50 [95% CI]” value was 5.1 [5.0 – 5.2]. This compound also showed a hCB1 GoB Emax [95% CI] on hCB1 (GoB sensor, normalized to CP-55,940) of 115%. The “hCB1 Gz pEC50 [95% CI]” value at hCB1 (Gz sensor) was 5.6 [5.3 – 6.0]. Further, on hCB1 (Gz sensor, normalized to CP-55,940), the hCB1 Gz Emax [95% CI] stood at 114%. The EC50 at hCB1 (read-out: hCB1 Gi1 EC50 [95% CI], Gi1 sensor) turned out to be 6.52 µM; at hCB1 (read-out: hCB1 GoB EC50 [95% CI], GoB sensor) it was 7.99 µM; on hCB1 (read-out: hCB1 Gz EC50 [95% CI], Gz sensor) it was 2.43 µM. The Ki is 5 µM at CB1 and 5.33 µM at CB1 (read-out: rCB1 binding Ki [95% CI], [3H]-CP-55,940 competition, rat brain membranes). Also, the “rCB1 binding pKi [95% CI]” value at CB1 ([3H]-CP-55,940 competition, rat brain membranes) is 5.3 [5.1 – 5.4]. For the same compound, the “rCB1 binding Emax [SEM]” value at CB1 (maximal radioligand displacement) came to 103%. At CB1 (screens at 10 μM (white cells), 1 μM (orange) or 300 nM (green), cell colours not visible), the “% 1H-CP-55,940 displacement (mean) from single point screen” value amounted to 64.38%.
